Biological target: IL-17A (Homo sapiens, UniProt Q16552)
Assay: Inhibition of IL-17A induced IL-6 release from dermal fibroblast cell line (HDF cell line assay)
Conditions: human dermal fibroblasts stimulated with IL-17A (50 pM) + TNF-α (25 pM); IL-6 measured by HTRF; pIC50 = -log10[IC50], IC50 molar
Description: Inhibition of IL-17A Induced IL-6 Release from Dermal Fibroblast Cell Line
The purpose of this assay is to test the neutralising ability to IL-17 proteins, in a human primary cell system. Stimulation of normal human dermal fibroblasts (HDF) with IL-17 alone produces only a very weak signal but in combination with certain other cytokines, such as TNFα, a synergistic effect can be seen in the production of inflammatory cytokines, i.e. IL-6.
HDFs were stimulated with IL-17A (50 pM) in combination with TNF-α (25 pM). The resultant IL-6 response was then measured using a homogenous time-resolved FRET kit from Cisbio. The kit utilises two monoclonal antibodies, one labelled with Eu-Cryptate (Donor) and the second with d2 or XL665 (Acceptor). The intensity of the signal is proportional to the concentration of IL-6 present in the sample (Ratio is calculated by 665/620×104).
The ability of a compound to inhibit IL-17 induced IL-6 release from human dermal fibroblasts is measured in this assay.
HDF cells (Sigma #106-05n) were cultured in complete media (DMEM+10% FCS+2 mM L-glutamine) and maintained in a tissue culture flask using standard techniques. […] The cells were re-suspended in complete media (5 mL) counted and adjusted to a concentration of 3.125×10^4 cells/mL before being added to the 384 well assay plate (Corning #3701) at 40 μL per well. […]

Protein sequences, listed by entry. Tags and fused reporters are not part of them. Residues count along the entry.
UniProt Q16552, 24-155 limits assumed: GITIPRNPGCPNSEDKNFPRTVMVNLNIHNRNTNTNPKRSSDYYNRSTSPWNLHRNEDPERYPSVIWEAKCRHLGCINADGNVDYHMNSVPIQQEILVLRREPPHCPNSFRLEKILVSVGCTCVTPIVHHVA

Row | SMILES | pIC50
1 | O=C(N[C@H](c1cn2ncc([C@H]3CS(=O)(=O)CCN3C(=O)C34CC(F)(C3)C4)nc2n1)[C@H]1CC[C@H](C(F)(F)F)CC1)C1(F)CC1 | 6.9
2 | O=C(N[C@H](c1cn2ncc([C@@H]3CS(=O)(=O)CCN3C(=O)C34CC(F)(C3)C4)nc2n1)[C@H]1CC[C@H](C(F)(F)F)CC1)C1(F)CC1 | 7.0

From US20240294534A1, “IMIDAZOTRIAZINE DERIVATIVES AS IL-17 MODULATORS” (UCB BIOPHARMA SRL, priority 2021, published 2024)
